# Rows were chosen to be rich in hits. Some 0.7% of all compounds tested hit in one or more screens of this group.
# Sa growth 42C = S. aureus growth inhibition at 42 and 30 °C, primary screen, LtaS inhibitor project, RN4220, two temperatures | 170,000 compounds, 0.53% hits | AID 720641, 2013 | relative growth, % (test concentration not listed) | OD600, 20 h, 42 °C; stronger effect = lower value;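 active means relative growth at most 50% at the other temperature and 20+ points below 30 °C, or under 10% at both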
# HCMV NEC inh = inhibitors of HCMV UL50-UL53 interaction, biochemical, HTRF. normalized percent inhibition. 190,000 compounds, 0.15% hits. HCMV UL50-UL53 nuclear egress complex (human cytomegalovirus). inhibition, % (test concentration not listed); in the data active means inhibition above about 27%, passing the limit was not always enough
# GIV Gai3 FP = blocks GIV peptide binding to rat Galpha-i3. P08753. Galpha-i3/FITC-GIV peptide fluorescence polarization, 90 min; stronger effect = lower value; scaled: aluminum fluoride 0%, vehicle 100%. percent of control (FP), % (test concentration not listed). actives 0.42% (n = 210,000). AID 1224905;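 active means replicate mean at 85% of control or lower, very high polarization wells dropped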;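 further: wells of about 15 µL received 100 nL stock; the first replicate is given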
# Active calls of the source: *; . = no result; ! = not active in a repeat.
Molecule,Sa growth 42C,HCMV NEC inh,GIV Gai3 FP
COc1ccc(C2C=C(c3ccc(Cl)cc3)Nc3nc(-c4ccc(Cl)cc4)nn32)cc1 (stereo not drawn),80,6,-8.2*!
O=C(Nc1nc2n(n1)C(c1ccc(Cl)cc1)C=C(c1ccccc1)N2)c1ccco1 (stereo not drawn),67,-36,-44*
COc1ccc(C2C=C(c3ccccc3)Nc3nc(NC(=O)c4ccc(C)cc4)nn32)cc1 (stereo not drawn),96,-29,128
Cc1ccc(C2=CC(c3ccc(Cl)cc3)n3nc(-c4ccc(C)cc4)nc3N2)cc1 (stereo not drawn),94,12,101
O=C(Nc1nc2n(n1)C(c1ccc(F)cc1)C=C(c1ccccc1)N2)c1ccco1 (stereo not drawn),107,-51,130
CCOC(=O)Cn1c(=O)c2cnc(-c3ccccc3)nc2n(C)c1=O,.,19,102
CCOC(=O)c1ccccc1NC(=O)c1sc2nc(C)nc(N3CCC(C)CC3)c2c1C,.,.,106
O=c1oc2c(CN3CCCCCC3)c(O)ccc2cc1-c1nc2ccccc2s1,.,-64,-32*
O=c1oc2c(CN3CCOCC3)c(O)ccc2cc1-c1ccccc1,98,.,102
O=c1oc2ccccc2cc1-c1nc2ccccc2s1,.,-10,101
O=c1oc2c(CN3CCN(CCO)CC3)c(O)ccc2cc1-c1nc2ccccc2s1,92,-86,-45*
O=c1oc2c(CN3CCCCC3)c(O)ccc2cc1-c1nc2ccccc2s1,.,-47,-32*
CC1CCN(Cc2c(O)ccc3cc(-c4nc5ccccc5s4)c(=O)oc23)CC1,.,-45,-32*
CN1CCN(Cc2c(O)ccc3cc(-c4nc5ccccc5n4C)c(=O)oc23)CC1,92,-63,131
COc1ccc(-c2cc3ccc(O)c(CN4CCN(CCO)CC4)c3oc2=O)cc1OC,73,.,125
CC(=O)c1cccc(N2C(=O)/C(=C/c3ccc(-c4cc(Cl)ccc4Cl)o3)C=C2c2ccccc2)c1,.,.,132
CN(C)C(=O)c1cc(NC(=O)c2ccc(F)cc2)cnc1N1CCNCC1,.,.,98
O=S(=O)(c1cc(-c2noc(C3CCC3)n2)cs1)N1CCN(c2ccc(F)cc2)CC1,.,.,100
O=C(O)CC1N=C(Nc2nc3ccccc3s2)NC1=O (stereo not drawn),93,9,116
CS(=O)(=O)Nc1ccc(-c2noc(Cc3ccccc3Br)n2)cc1,.,.,101
CN(C)Cc1c(O)ccc2cc(-c3nc4ccccc4s3)c(=O)oc12,92,-62,-45*
COc1cccc2cc(-c3nc4ccccc4s3)c(=O)oc12,.,-9,.
CCCn1c(=O)[nH]c2c(sc3ncccc32)c1=O,.,-84,108
CC1CN(Cc2csc(Nc3ccccc3)n2)CC(C)O1 (stereo not drawn),0.7*,.,.
CC(=O)N1CCN(Cc2csc(Nc3ccccc3)n2)CC1,106,-34,.
CC1Cc2ccccc2N1C(=O)Nc1ccc(Cl)c(Cl)c1 (stereo not drawn),107,-11,.
CC(N=c1ccccn1C(=O)Nc1ccc(Cl)c(Cl)c1)c1ccco1 (stereo not drawn),-0.8*,-12,.
O=c1[nH]c2nc3ccccc3n2c2ncccc12,86,-19,.
CC(=O)Oc1ccc2cc(-c3nnc(-c4ccccc4)o3)c(=O)oc2c1,.,-32,173
CC(=O)Oc1ccc2cc(-c3nc4c(s3)CCc3ccccc3-4)c(=O)oc2c1,94,.,-79*
Cc1sc2nc(COC(=O)c3ccc(S(=O)(=O)NCc4ccco4)cc3)[nH]c(=O)c2c1C,113,12,.
Cc1ccc(-c2csc(/C=C3/NC(=O)CS3)n2)cc1,121,-46,.

# Random excerpt: 6 records from the list, in no set order.
Molecule,Sa growth 42C,HCMV NEC inh,GIV Gai3 FP
CC(=O)N1CCN(Cc2csc(Nc3ccccc3)n2)CC1,106,-34,.
Cc1sc2nc(COC(=O)c3ccc(S(=O)(=O)NCc4ccco4)cc3)[nH]c(=O)c2c1C,113,12,.
CC(=O)Oc1ccc2cc(-c3nc4c(s3)CCc3ccccc3-4)c(=O)oc2c1,94,.,-79*
CC(=O)Oc1ccc2cc(-c3nnc(-c4ccccc4)o3)c(=O)oc2c1,.,-32,173
CC1Cc2ccccc2N1C(=O)Nc1ccc(Cl)c(Cl)c1 (stereo not drawn),107,-11,.
Cc1ccc(-c2csc(/C=C3/NC(=O)CS3)n2)cc1,121,-46,.

# Continuation:
Molecule,Sa growth 42C,HCMV NEC inh,GIV Gai3 FP
Cc1cc2nc(NCc3ccccn3)c3ccccc3n2n1,98,18,.
Cc1[nH]n2c(=O)cc(-c3ccc(Cl)cc3)nc2c1-c1ccccc1,-0.5*,-28,106
Cc1[nH]n2c(=O)cc(-c3ccc(F)cc3)nc2c1-c1ccccc1,.,-10,96
CC(C)CCNC(=O)C1CCCN(S(=O)(=O)N2CCC3(CC2)OCCO3)C1 (stereo not drawn),99,-27,98
CCc1nnc(SCC(=O)N(CC)c2cccc(C)c2)c2cc3occc3n12,68,-75,101
CC(=O)NCCc1csc(-c2ccc(Cl)cc2)n1,.,-42,105
CN1CCC(N(C)Cc2csc(-c3ccc(Cl)cc3)n2)CC1,-0.3*,-34,.
Cc1ccc2c(Cl)cc(Cl)c(OCC(=O)Nc3c(F)cccc3F)c2n1,-0.2*,7,.
Cc1ccc(OCC(=O)Nc2cccc3ccc(C)nc23)c(C)c1,99,-4,108
Cc1nc2sccn2c(=O)c1S(=O)(=O)Nc1ccc(CN2CCOCC2)cc1,.,-23,97
CCOc1ccc(NC(=O)C2NC(=O)CC2c2ccccc2)cc1 (stereo not drawn),89,-9,100
CCOc1ccc(NC23SCC(=O)C2CCc2ccccc23)cc1 (stereo not drawn),2.0*,28,88
OCC1OC(Oc2cccc(O)c2CCCc2ccc(O)cc2)C(O)C(O)C1O (stereo not drawn),107,-17,.
COc1ccc(OC)c(C(c2c(O)[nH]c(=O)[nH]c2=O)N(Cc2ccccc2)C(C)C)c1 (stereo not drawn),99,7,110
CN(C)/C=C/C=C1\CC/C(=C\C=C\N(C)C)C1=O,70,21,155
CN(C)/C=C/C=C1\CCc2ccccc2C1=O,86,.,-73*
NC(N)=N/N=C/c1cn(-c2ccccc2)nc1-c1ccccc1,-1.6*,-16,.
NC(=O)N/N=C/c1cn(-c2ccccc2)nc1-c1ccccc1,83,-6,104
CCOC(=O)c1ccc(N=Nc2ccc(O)c(CC(=O)O)c2)cc1,.,-35,.
Cc1cc(N=NC(=O)c2ccccc2)ccc1O,0.6*,-40,101
C=CCNC(=O)c1cnc2sccn2c1=O,.,8,104
O=C(c1nnc(-c2cc(S(=O)(=O)Nc3ccc(Cl)cc3)c[nH]2)o1)N1CCOCC1,.,.,103
O=C(CSc1nc(-c2ccccc2F)nc2cc(=O)[nH]n12)Nc1cccc(C(F)(F)F)c1,2.8*,.,95
O=C(CSc1nc(-c2cccc(Cl)c2)nc2cc(=O)[nH]n12)Nc1ccccc1,89,.,99
O=c1oc2ccc(Cl)cc2cc1-c1nc(-c2ccc(Br)cc2)cs1,.,.,118
CCN(CC)c1ccc2cc(C(=O)Nc3ccccc3)c(=N)oc2c1,110,.,73*
CCN(CC)c1ccc2cc(-c3nc4ccccc4c(=O)[nH]3)c(=N)oc2c1,100,-9,8.2*
CCN(CC)c1ccc2cc(-c3c(O)c4ccccc4[nH]c3=O)c(=O)oc2c1,101,-9,.
CCN(CC)c1ccc2cc(C(=O)Nc3ccc(C)cc3)c(=N)oc2c1,92,-18,136
Cc1ccc(N=C2C(=O)N(CN(C)C)c3ccccc32)cc1,84,-32,107
CCCN1c2ccccc2C2=C(SC(C(=O)OC)=C(C(=O)OC)C23SC(C(=O)OC)=C(C(=O)OC)S3)C1(C)C,.,.,106
CCOc1ccccc1NC(=O)c1cn(C2CCCCC2)c(=O)c2c1c1ccccc1n2C,103,54*,100

# Source: PubChem BioAssay (ICCB-Longwood Screening Facility, Harvard Medical School)
